The source of these data is patent US9018211B2, “Inhibitors of the renal outer medullary potassium channel” (Merck Sharp & Dohme Corp., priority 2009, dated 2015).

Chains of the proteins cited; added tags and fusions are not shown.
UniProt P48048, whole entry, species assumed: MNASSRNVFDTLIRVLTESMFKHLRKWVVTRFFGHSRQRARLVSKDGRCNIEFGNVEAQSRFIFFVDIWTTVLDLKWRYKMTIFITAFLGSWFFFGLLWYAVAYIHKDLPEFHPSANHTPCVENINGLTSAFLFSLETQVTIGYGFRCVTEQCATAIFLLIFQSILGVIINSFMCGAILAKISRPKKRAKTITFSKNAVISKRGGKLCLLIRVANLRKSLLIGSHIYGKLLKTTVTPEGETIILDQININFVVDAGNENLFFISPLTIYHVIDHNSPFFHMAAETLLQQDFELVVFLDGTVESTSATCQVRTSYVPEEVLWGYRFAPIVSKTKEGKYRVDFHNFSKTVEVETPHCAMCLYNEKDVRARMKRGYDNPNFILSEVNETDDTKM

Common to all, as to format: cell-based
The target in one assay is hROMK (hKir1.1) (Homo sapiens (Human), UniProt P48048). The assay is described as follows: Thallium Flux Assay. The settings on record: HEK293 cells stably expressing hROMK; FLIPR-Tetra, 30 min incubation.
Another assay addresses hROMK1 (Kir1.1) (Homo sapiens (Human), UniProt P48048). The assay is described as follows: 86Rb+ Efflux Assay. The settings on record: CHO-DHFR- cells stably expressing hROMK1; 35 min incubation.
Another assay has as its target Kir1.1 (ROMK1) (Homo sapiens (Human), UniProt P48048). The assay is described as follows: ROMK Electrophysiology Assay (IonWorks Quattro whole cell voltage clamp). The following applies: Chinese hamster ovary cells stably expressing Kir1.1; block at voltage step to 0 mV, 6 min compound incubation.

Each structure is given as a SMILES string.

Regarding `Cc1c([C@@H](O)CN2CCN(C[C@H](O)c3ccc4c(c3C)COC4=O)CC2)ccc2c1COC2=O` [Example 2A, 5,5′-{piperazine-1,4-diylbis[(1R)-1-hydroxyethane-2,1-diyl]}bis(4-methyl-2-benzofuran-1 (3H)-one)], the IC50 stood at 6 nM against hROMK (hKir1.1) and 68 nM against hROMK1 (Kir1.1).

As to `Cc1c([C@H](O)CN2CCN(C[C@@H](O)c3ccc4c(c3C)COC4=O)CC2)ccc2c1COC2=O` [Example 2B, 5,5′-{piperazine-1,4-diylbis[(1S)-1-hydroxyethane-2,1-diyl]} bis(4-methyl-2-benzofuran-1 (3H)-one)], the results for the IC50 on hROMK (hKir1.1), against hROMK1 (Kir1.1) and against Kir1.1 (ROMK1) were 29 nM, 171 nM and 12 nM, respectively.

As to `Cc1c([C@H](O)CN2CCN(C[C@H](O)c3ccc4c(c3C)COC4=O)CC2)ccc2c1COC2=O` [Example 2C, 5-((1R)-1-hydroxy-2-{4-[(2S)-2-hydroxy-2-(4-methyl-1-oxo-1,3-dihydro-2-benzofuran-5-yl)ethyl]piperazin-1-yl}ethyl)-4-methyl-2-benzofuran-1(3H)-one], the IC50 at hROMK (hKir1.1) is 11 nM; at hROMK1 (Kir1.1), 107 nM; against Kir1.1 (ROMK1), 10 nM.
